Biological target: T1, wild-type human ghrelin receptor (GHSR), cryo-EM construct (human, UniProt Q92847)
T1 construct: growth hormone secretagogue receptor (ghrelin receptor), human, wild type; also called growth hormone secretagogue receptor; source: Sf9 insect cells (baculovirus), purified (nickel Sepharose, anti-Flag M1 resin, SEC) in detergent; not shown: Flag, N-terminal, kept
Assay: cryo-EM structure; ghrelin-GHSR-Gi-scFv16 complex; GHSR mixed with Gi heterotrimer 1:1.2, apyrase, anti-Flag M1 resin, 1.2 molar excess scFv16, SEC in 20 mM HEPES pH 7.5, 100 mM NaCl, 0.002% MNG, 0.001% CHS, 1 μM ghrelin; Conformer 1 at 2.7 Å and a minor Conformer 2 at 3.5 Å
Settings: both partners purified

Sequences of proteins named here, by UniProt entry; tags and fusion partners are left off.
UniProt Q92847, whole entry: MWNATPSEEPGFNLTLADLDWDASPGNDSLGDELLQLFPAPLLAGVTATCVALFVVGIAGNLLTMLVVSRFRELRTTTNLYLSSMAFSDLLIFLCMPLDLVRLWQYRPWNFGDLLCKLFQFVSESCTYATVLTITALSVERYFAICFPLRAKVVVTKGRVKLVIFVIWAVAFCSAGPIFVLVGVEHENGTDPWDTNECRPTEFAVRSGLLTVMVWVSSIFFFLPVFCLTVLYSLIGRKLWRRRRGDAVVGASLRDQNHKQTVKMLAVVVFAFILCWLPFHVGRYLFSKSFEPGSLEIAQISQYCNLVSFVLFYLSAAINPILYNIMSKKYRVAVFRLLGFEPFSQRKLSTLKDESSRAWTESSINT

binding result: binds
B1: wild-type Gαi1 (natural protein, human)
chain: MGCTLSAEDKAAVERSKMIDRNLREDGEKAAREVKLLLLGAGESGKSTIVKQMKIIHEAGYSEEECKQYKAVVYSNTIQSIIAIIRAMGRLKIDFGDSARADDARQLFVLAGAAEEGFMTAELAGVIKRLWKDSGVQACFNRSREYQLNDSAAYYLNDLDRIAQPNYIPTQQDVLRTRVKTTGIVETHFTFKDLHFKMFDVGGQRSERKKWIHCFEGVTAIIFCVALSDYDLVLAEDEEMNRMHESMKLFDSICNNKWFTDTSIILFLNKKDLFEEKIKKSPLTICYPEYAGSNTYEEAAAYIQCQFEDLNKRKDTKEIYTHFTCATDTKNVQFVFDAVTDVIIKNNLKDCGLF
notes: Nucleotide-free in the complex (apyrase); also called human Gαi; source: Sf9 insect cells, co-expressed with Gβ1 and Gγ2, purified (nickel resin, anion exchange)
